# In patent US8557816B2, “Aurora kinase modulators and method of use” (Amgen Inc., priority 2007, dated 2013):
# Chains of the proteins cited; added tags and fusions are not shown. Residues count along the entry.
# UniProt O14965, 133-383 limits assumed: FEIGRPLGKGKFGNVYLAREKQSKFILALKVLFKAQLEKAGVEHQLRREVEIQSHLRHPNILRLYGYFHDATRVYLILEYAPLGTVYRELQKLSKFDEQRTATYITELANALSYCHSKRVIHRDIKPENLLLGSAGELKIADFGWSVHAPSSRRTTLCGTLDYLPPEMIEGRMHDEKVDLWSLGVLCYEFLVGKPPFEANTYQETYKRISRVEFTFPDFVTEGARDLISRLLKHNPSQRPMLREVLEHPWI
# UniProt Q9ULW0, 1-43 partner limits assumed: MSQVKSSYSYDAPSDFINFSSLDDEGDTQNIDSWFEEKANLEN
# Target: AuroraA-TPX2 (Homo sapiens, UniProt O14965)
# Test: AuroraA-TPX2 Homogeneous Time Resolved Fluorescent (HTRF) kinase assay
# Conditions: read-out: AurA_IC50_IP (uM Avg); average
smiles,measurement,value
COc1cnc2c(Sc3ccc(Nc4nnc(-c5ccc(Cl)cc5)c5ccccc45)cn3)ccnc2c1,IC50,0.023 µM
COc1cnc2c(Sc3ccc(Nc4nnc(N5CCOCC5)c5ccccc45)cc3)ccnc2c1,IC50,0.294 µM
